Reference: PMC10698161, “Investigation of monoclonal antibody CSX-1004 for fentanyl overdose” (2023)

System: CSX-1004
Experiment: Competitive SPR assay (CSX-1004 pre-incubated with compound, fentanyl-BSA coated sensor chip)
Settings: for Response (RU): repeats 1-3
[1] = 20 µM compound, batch 1 (No Compound Control 74.33-81.4 RU)
[2] = 30 µM compound, batch 1 (No Compound Control 74.33-81.4 RU)
[3] = 10 µM compound, batch 2 (No Compound Control 132.47-141.98 RU)

Compound	CSX-1004 cross-reactivity (in words)	Response (RU) [3]	further results
COc1ccc2c3c1O[C@H]1C(=O)CC[C@@]4(O)[C@@H](C2)N(C)CC[C@]314	lacked CSX-1004 cross-reactivity	–	Response (RU) [1]: 60.09 RU and 59.65 RU and 54.98 RU
O=C1CC[C@@]2(O)[C@H]3Cc4ccc(O)c5c4[C@@]2(CCN3CC2CC2)[C@H]1O5	lacked CSX-1004 cross-reactivity	–	Response (RU) [2]: 71.11 RU and 66.89 RU and 52.76 RU
CO[C@]12CC[C@@]3(C[C@@H]1[C@](C)(O)C(C)(C)C)[C@H]1Cc4ccc(O)c5c4[C@@]3(CCN1CC1CC1)[C@H]2O5	–	–	Response (RU) (21 µM compound, batch 1 (No Compound Control 74.33-81.4 RU)): 65.91 RU and 62.88 RU and 60.49 RU
CO[C@]12CC[C@@]3(C[C@@H]1[C@](C)(O)C(C)(C)C)[C@H]1Cc4ccc(O)c5c4[C@@]3(CCN1)[C@H]2O5	–	–	Response (RU) (24 µM compound, batch 1 (No Compound Control 74.33-81.4 RU)): 64.04 RU and 53.15 RU and 57.97 RU
Leu-Enkephalin	–	128.82 RU and 128.06 RU and 110.9 RU	–
CCC(=O)C(CC(C)N(C)C)(c1ccccc1)c1ccccc1 (stereo not shown)	lacked CSX-1004 cross-reactivity	129.77 RU and 129.64 RU and 127.04 RU	–
COc1ccc2c3c1O[C@H]1C(=O)CC[C@H]4[C@@H](C2)N(C)CC[C@]314	–	–	Response (RU) [1]: 60.4 RU and 57.84 RU and 54.87 RU
Dynorphin A	–	253.61 RU and 211.28 RU and 187.91 RU	–
COc1ccc2c3c1O[C@H]1[C@@H](O)C=C[C@H]4[C@@H](C2)N(C)CC[C@@]341	–	129.19 RU and 127.72 RU and 126.75 RU	–
β-Endorphin	lacked CSX-1004 cross-reactivity	136.63 RU and 134.21 RU and 136.11 RU	–
C=CCN1CC[C@]23c4c5ccc(O)c4O[C@H]2C(=O)CC[C@@]3(O)[C@H]1C5	lacked CSX-1004 cross-reactivity	–	Response (RU) [2]: 83.33 RU and 69.07 RU and 67.73 RU
CN1CC[C@]23c4c5ccc(O)c4O[C@H]2C(=O)CC[C@H]3[C@H]1C5	–	129.57 RU and 130.31 RU and 129.18 RU	–
CC(=O)O[C@H]1C=C[C@H]2[C@H]3Cc4ccc(O)c5c4[C@@]2(CCN3C)[C@H]1O5	–	–	Response (RU) (2 µM compound, batch 1 (No Compound Control 74.33-81.4 RU)): 64.52 RU and 61.08 RU and 59.22 RU
CN1CC[C@]23c4c5ccc(O)c4O[C@H]2C(=O)CC[C@@]3(O)[C@H]1C5	–	132.73 RU and 133.43 RU and 130.44 RU	–

Values joined by “and” are separate entries in the source; they are usually repeats but may differ in a detail not shown here. Equal entries are not always repeated.
